Measured values reported in US10456443B2, “Peptidyl calcineurin inhibitors” (OHIO STATE INNOVATION FOUNDATION, priority 2014, dated 2019).

Key:
[1] = 25% human serum, 37 °C
docking site on CN = docking site on CN (Homo sapiens, UniProt Q08209); details: versus PxIxIT motif; cited from earlier work
[2] = B6 and C3H/HeN mouse strains; cited from earlier work
[3] = mice; cited from earlier work
[4] = tested on: NFATc3 translocation in macrophages; test: LPS induced NFATc3 nuclear translocation in macrophages; assay type: cell-based; details: CP9-ZIZIT at 1 μM
[5] = treated mice compared to controls; cited from earlier work
[6] = tested on: HeLa cells stably transfected with GFP-NFAT; test: GFP-NFAT translocation assay, live-cell confocal microscopy; details: 500 nM peptide, 2 h preincubation, 10 min ionomycin stimulation
[7] = diabetic db/db mice; cited from earlier work

Row | Compound | time to complete degradation in serum [1] | half-life of degradation in serum ([1]; 50 μM peptide) | fold higher affinity for CN docking site than the naturally occurring PxIxIT motif (docking site on CN) | effect on immunosuppression during islet allografts [2] | effect on experimental colitis [3] | LPS induced NFATc3 nuclear translocation [4] | effect on microgliosis and Aβ plaque load [5] | inhibition of the nuclear translocation of GFP-NFAT [6] | effect on albuminuria, mesangial matrix expansion and podocyte injury [7]
1 | CC[C@H](C)[C@H](NC(=O)[C@@H](NC(=O)[C@@H]1CCCN1C(=O)[C@H](Cc1c[nH]cn1)NC(=O)[C@@H]1CCCN1C(=O)CN)C(C)C)C(=O)N[C@H](C(=O)N[C@H](C(=O)N[C@H](C(=O)NCC(=O)N1CCC[C@H]1C(=O)N[C@@H](Cc1c[nH]cn1)C(=O)N[C@@H](CCC(=O)O)C(=O)N[C@@H](CCC(=O)O)C(N)=O)[C@@H](C)O)[C@@H](C)CC)C(C)C [VIVIT] | 6 h | ~1 h | 25 fold |  |  |  |  |  | 
2 | Ac-RRRRRRRRRRRC-SPDP-GPHPVIVITGPHEE-NH2 [Peptide R11-VIVIT] |  |  |  | improve immunosuppression | protect against experimental colitis | inhibited | attenuate both microgliosis and Amyloid β peptide (Aβ) plaque load | ~65% | markedly attenuates albuminuria
